In patent EP0561496A2, “cDNAs encoding the gastrin and CCK-B receptors” (NEW ENGLAND MEDICAL CENTER HOSPITALS, INC., priority 1992, dated 1993) one finds IC50 data, which are given here for 1 substance.

Chains of the proteins cited; added tags and fusions are not shown. Lines headed by an entry give the natural chain unless they say otherwise; changes in a name come on top.
UniProt P01350: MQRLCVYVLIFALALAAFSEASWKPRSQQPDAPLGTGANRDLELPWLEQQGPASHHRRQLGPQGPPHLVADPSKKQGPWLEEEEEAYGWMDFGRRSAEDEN

pIC50: −log10 of the molar value.

The target of the experiment is human brain CCK-B receptor (recombinant, clone hCCKB, expressed in transfected COS-7 cells) (human). Description: competition against 125I-CCK-8, hCCKB transfected COS-7 cells.

As usually defined, the pIC50 is −log10 of the IC50, conventionally taken in molar units. On to “gastrin I (from UniProt P01350 76-92) (peptide)”, for which the negative-log IC50 (pIC50) is 9.03.
